In experiment [1] the target is Mu-type opioid receptor (Rattus norvegicus, UniProt P33535). The experiment is described as follows: Displacement of [3H]diprenorphine from rat mu opioid receptor expressed in CHO cells. A general note: Loss of bound radioactivity is the signal in a displacement assay; it reports binding, not function.
The target in experiment [2] is Delta-type opioid receptor (Mus musculus, UniProt P32300). The experiment is described as follows: Displacement of [3H]diprenorphine from mouse delta opioid receptor expressed in CHO cells.
Experiment [3] addresses T1, Kappa-type opioid receptor (Homo sapiens, UniProt P41145). The experiment is described as follows: Agonist activity at human kappa opioid receptor expressed in CHO cells assessed as stimulation of [35S]GTPgammaS binding.
In experiment [4] the target is T1, Kappa-type opioid receptor. The experiment is described as follows: Displacement of [3H]diprenorphine from human kappa opioid receptor expressed in CHO cells.

Sequences of proteins named here, by UniProt entry; tags and fusion partners are left off. A change or cut given only in a name is not applied to a line headed by its entry.
UniProt P33535, whole entry, looked up: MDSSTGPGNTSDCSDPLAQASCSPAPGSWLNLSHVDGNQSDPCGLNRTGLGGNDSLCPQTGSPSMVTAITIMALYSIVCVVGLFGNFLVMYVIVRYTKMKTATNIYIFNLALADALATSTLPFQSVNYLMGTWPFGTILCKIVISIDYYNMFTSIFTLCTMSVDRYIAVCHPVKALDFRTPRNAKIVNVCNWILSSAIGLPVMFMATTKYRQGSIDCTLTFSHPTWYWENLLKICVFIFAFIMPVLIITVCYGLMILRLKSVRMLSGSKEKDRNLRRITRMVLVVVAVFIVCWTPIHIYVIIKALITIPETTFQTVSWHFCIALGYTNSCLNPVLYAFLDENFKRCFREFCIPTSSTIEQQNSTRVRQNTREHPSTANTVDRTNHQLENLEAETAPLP
UniProt P32300, whole entry, looked up: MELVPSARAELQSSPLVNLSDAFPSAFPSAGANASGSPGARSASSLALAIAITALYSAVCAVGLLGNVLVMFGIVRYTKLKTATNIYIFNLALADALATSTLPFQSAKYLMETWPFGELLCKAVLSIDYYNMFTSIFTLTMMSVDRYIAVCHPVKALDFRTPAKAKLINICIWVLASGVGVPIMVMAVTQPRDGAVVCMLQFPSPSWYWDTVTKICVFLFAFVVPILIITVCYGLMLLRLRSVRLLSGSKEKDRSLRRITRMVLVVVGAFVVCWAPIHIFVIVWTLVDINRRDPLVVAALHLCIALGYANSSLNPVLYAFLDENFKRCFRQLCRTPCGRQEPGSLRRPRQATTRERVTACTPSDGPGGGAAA
UniProt P41145: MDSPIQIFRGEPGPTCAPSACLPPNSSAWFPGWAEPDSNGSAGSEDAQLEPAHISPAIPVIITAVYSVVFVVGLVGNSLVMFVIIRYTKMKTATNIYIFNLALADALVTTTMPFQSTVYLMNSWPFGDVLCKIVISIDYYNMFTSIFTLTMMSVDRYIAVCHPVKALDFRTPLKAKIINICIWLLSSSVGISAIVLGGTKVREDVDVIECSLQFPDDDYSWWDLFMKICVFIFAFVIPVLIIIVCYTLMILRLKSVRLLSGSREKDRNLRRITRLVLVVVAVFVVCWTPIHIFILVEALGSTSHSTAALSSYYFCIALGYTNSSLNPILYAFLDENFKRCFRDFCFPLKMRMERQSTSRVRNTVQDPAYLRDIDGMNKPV

As usually defined, the Ki is a measure of affinity in units of concentration, obtained from inhibition or displacement. Higher therefore signals weaker binding. Usually EC50 stands for the concentration at which the effect is half-maximal.

Consider `CN(C(=O)Cc1ccc(Cl)c(Cl)c1)C1CCCCC1N1CCCC1` (stereo not drawn), for which the Ki in experiment [1] and in experiment [2] was > 1000 nM in each case.
Turning to `COCO[C@H]1C[C@@H](C(=O)OC)[C@]2(C)CC[C@H]3C(=O)O[C@H](c4ccoc4)C[C@]3(C)[C@H]2C1=O`, the EC50 in experiment [3] was 0.4 nM. Also, the Ki in experiment [1] was > 1000 nM; in experiment [2], > 1000 nM; in experiment [4] it was 0.6 nM.
For the compound `COC(=O)[C@@H]1C[C@H](OC(C)=O)C(=O)[C@H]2[C@@]1(C)CC[C@H]1C(=O)O[C@H](c3ccoc3)C[C@]21C`, the Ki in experiment [1] and in experiment [2] was > 1000 nM in each case.

(Values after ChEMBL document CHEMBL1143255, “Standard protecting groups create potent and selective kappa opioids: salvinorin B alkoxymethyl ethers” (Bioorg Med Chem, 2008).)
